Conditions: additive at 3 percent weight

## NCCN [Ethylenediamine, diaminoethane]
  Viscosity in centipoises at 21-28 Hrs.: 1050 centipoises

From US4145296A, “Weather-durable aqueous fire retardant stabilized against gelation” (priority 1977, dated 1979)
